Tests used:
[1] = target: T1, P-selectin (P-selectin/IgG) (Homo sapiens, UniProt P16109); test: Cell-free P-selectin ligand competitive binding assay (sLe^a-PAA); details: P-selectin/IgG coated plate, sLe^a-PAA streptavidin-POD complex, 25° C., 2 hours; read-out: IC50, Binding Affinity to P-Selectin Determined by Competitive Binding Assay
T1 sequence (P16109 42-771): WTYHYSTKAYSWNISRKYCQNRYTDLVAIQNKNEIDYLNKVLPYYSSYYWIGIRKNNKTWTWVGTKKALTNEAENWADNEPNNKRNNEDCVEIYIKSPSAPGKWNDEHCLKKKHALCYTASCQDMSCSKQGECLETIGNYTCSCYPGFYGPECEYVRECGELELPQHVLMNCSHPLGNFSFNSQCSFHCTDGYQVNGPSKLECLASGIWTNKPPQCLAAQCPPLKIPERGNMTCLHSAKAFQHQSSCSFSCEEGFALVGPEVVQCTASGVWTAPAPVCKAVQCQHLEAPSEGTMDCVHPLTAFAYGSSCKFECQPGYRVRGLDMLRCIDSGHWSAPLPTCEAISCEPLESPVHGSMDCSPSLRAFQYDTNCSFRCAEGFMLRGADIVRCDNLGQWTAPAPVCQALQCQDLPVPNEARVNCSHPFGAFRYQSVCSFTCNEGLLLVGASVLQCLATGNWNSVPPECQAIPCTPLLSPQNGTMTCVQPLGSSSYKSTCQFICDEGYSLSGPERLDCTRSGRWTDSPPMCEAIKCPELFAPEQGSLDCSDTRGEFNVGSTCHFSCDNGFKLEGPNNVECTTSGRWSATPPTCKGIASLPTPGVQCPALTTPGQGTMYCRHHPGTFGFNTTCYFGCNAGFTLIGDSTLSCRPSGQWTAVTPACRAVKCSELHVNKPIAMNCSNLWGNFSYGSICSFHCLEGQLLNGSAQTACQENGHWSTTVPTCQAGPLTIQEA
Description: The cell-free P-selectin ligand binding assay was adapted from Weitz-Schmidt et al (G. Weitz-Schmidt, D. Stokmaier, G. Scheel, N. E. Nifant'ev, A. B. Tuzikov, N. V. Bovin, Anal Biochem 1996, 238, 184-190). A MaxiSorp 96-well flat bottom microtiter plate purchased from Nalge Nunc International (Penfield, N.Y., USA) was coated with P-selectin/IgG by incubation with 100 μL/well of the purified protein at a concentration of 3 μg/ml in 10 mM HEPES-NaOH pH 7.4, 150 mM NaCl, 1 mM CaCl2 (HAB-Ca^+). After an overnight incubation at 4° C., the plate was washed three times with HAB-Ca^+ followed by a 2 hour incubation with 200 μL/well of a solution of 3% BSA in HAB-Ca^+ at room temperature to block nonspecific binding. During this incubation, inhibitory test compounds, diluted in HAB-Ca^+, were titrated by a twofold serial and mixed with an equal volume of 0.2 μg/ml of a preformed complex of a biotinylated sialyl Lewis' polyacrylamide polymer (sLe^a-PAA) purchased form GlycoTech Inc. (Gaithsburg, Md., USA) and horseradish peroxidase-labeled streptavidin (streptavidin-POD) purchased from Roche (Rotkreuz, Switzerland). […] The optical density was determined at 450 nm (SpectraMax). […]

[2] = target: T2, E-selectin (E-selectinLEC2 construct) (Homo sapiens, UniProt P16581); test: Microscale Thermophoresis (MST) affinity assay for E-selectin; details: labeled E-selectinLEC2, HEPES buffer pH 7.4, 1 mM CaCl2, 25° C.; read-out: Binding Affinity (KD) to E-Selectin Determined by MST
T2 construct: a construct consisting of the lectin domain, the EGF like domain, and the first two short consensus repeats (E-selectinLEC2)
T2 sequence (P16581 22-301 limits assumed): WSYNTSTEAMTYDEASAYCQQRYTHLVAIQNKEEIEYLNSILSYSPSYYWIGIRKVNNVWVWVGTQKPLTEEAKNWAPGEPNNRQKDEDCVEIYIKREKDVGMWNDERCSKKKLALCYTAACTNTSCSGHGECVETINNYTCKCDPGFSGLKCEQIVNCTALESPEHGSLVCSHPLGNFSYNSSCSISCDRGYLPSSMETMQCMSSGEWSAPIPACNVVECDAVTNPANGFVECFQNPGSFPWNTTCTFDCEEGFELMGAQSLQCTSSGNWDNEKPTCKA
Description: For E-selectin, a construct consisting of the lectin domain, the EGF like domain, and the first two short consensus repeats (E-selectinLEC2) was labeled using the amine reactive protein labeling kit BLUE-NHS from NanoTemper Technologies GmbH (Munich, Germany).
The Microscale Thermophoresis (MST) experiments were carried out in a HEPES buffer adjusted to pH 7.4 containing 150 mM NaCl, 1 mM CaCl2 and 0.05% Tween 20 at a temperature of 25° C. with 50% LED power, 50% laser power, laser on time of 30 seconds, and laser off time of 5 seconds with standard treated capillaries. A fixed concentration of the labeled E-selectinLEC2 protein was incubated for 20 minutes with a 15-datapoint […] 1:1 dilution of ligand starting about 30 times above the expected KD. The observed data points were fitted using the single-site binding function of Alan Cooper, Tutorial Chemistry Texts, Vol 16: Biophysical Chemistry; Royal Society of Chemistry: Cambridge, 2004.

In the case of “sialyl-Lewis^x [sLe^x, reference compound]”, the IC50 [1] is reported as over 7000 µM and the Kd [2] is reported as 687 µM.
